Test [1] has as its target Mu-type opioid receptor (Mus musculus) (UniProt P42866). The experiment in a line: Equilibrium constant, ratio of IC50 for mu opioid receptor in ddy mouse vas deferens in presence of 100 nM naloxone to IC50 for mu opioid receptor in ddy mouse vas deferens.
The target in test [2] is Delta-type opioid receptor (Mus musculus) (UniProt P32300). The experiment in a line: Equilibrium constant, ratio of IC50 for delta opioid receptor in ddy mouse vas deferens in presence of 10 nM Naltrindole to IC50 for delta opioid receptor in ddy mouse vas deferens.
Test [3] addresses Opioid receptor (mu and kappa) (Cavia porcellus) (UniProt P41144+P97266). The experiment in a line: Selectivity ratio of Ke for mu opioid receptor in guinea pig ileum to Ke for kappa opioid receptor in guinea pig ileum.
The species entered for test [4] is Mus musculus. The experiment in a line: Selectivity ratio of Ke for mu opioid receptor in ddy mouse vas deferens to Ke for kappa opioid receptor in ddy mouse vas deferens.
The species named for test [5] is Mus musculus. Nature of the test: Selectivity ratio of Ke for delta opioid receptor in ddy mouse vas deferens to Ke for kappa opioid receptor in ddy mouse vas deferens.
The species named for test [6] is Cavia porcellus. The experiment in a line: Equilibrium constant, ratio of IC50 for mu opioid receptor in guinea pig ileum in presence of 100 nM Naloxone to IC50 for mu opioid receptor in guinea pig ileum.
The target of test [7] is Kappa-type opioid receptor (Cavia porcellus) (UniProt P41144). The experiment in a line: Equilibrium constant, ratio of IC50 for kappa opioid receptor in guinea pig ileum in presence of 10 nM nor-BNI to IC50 for kappa opioid receptor in guinea pig ileum.
In test [8] the target is Kappa-type opioid receptor (Mus musculus) (UniProt P33534). Nature of the test: Equilibrium constant, ratio of IC50 for kappa opioid receptor in ddy mouse vas deferens in presence of 1 nM nor-BNI to IC50 for kappa opioid receptor in ddy mouse vas deferens.

By UniProt entry, the sequences of proteins in these tests, tags left out. Where a name states a change or a piece, a line headed by the entry shows the natural chain unless it says otherwise.
UniProt P42866, whole entry, looked up: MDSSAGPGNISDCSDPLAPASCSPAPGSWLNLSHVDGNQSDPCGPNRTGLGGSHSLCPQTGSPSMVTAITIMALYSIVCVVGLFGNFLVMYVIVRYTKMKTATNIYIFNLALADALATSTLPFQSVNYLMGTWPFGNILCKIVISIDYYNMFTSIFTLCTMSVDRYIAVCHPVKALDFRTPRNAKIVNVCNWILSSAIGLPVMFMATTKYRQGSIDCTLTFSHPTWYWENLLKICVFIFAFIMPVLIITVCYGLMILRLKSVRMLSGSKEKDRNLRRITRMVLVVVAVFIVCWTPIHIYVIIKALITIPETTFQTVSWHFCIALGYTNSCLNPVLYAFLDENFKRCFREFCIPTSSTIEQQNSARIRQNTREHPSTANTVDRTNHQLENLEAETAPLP
UniProt P32300, whole entry, looked up: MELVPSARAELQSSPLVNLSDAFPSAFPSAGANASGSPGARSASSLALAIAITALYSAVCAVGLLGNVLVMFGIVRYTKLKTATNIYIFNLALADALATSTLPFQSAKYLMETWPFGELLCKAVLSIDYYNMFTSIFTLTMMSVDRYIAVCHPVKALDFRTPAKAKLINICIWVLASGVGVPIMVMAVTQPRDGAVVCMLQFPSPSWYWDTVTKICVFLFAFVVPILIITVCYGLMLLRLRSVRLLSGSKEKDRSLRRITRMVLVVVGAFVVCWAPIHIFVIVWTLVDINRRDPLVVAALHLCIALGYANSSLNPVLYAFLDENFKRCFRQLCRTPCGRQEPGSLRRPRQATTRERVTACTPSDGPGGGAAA
UniProt P41144: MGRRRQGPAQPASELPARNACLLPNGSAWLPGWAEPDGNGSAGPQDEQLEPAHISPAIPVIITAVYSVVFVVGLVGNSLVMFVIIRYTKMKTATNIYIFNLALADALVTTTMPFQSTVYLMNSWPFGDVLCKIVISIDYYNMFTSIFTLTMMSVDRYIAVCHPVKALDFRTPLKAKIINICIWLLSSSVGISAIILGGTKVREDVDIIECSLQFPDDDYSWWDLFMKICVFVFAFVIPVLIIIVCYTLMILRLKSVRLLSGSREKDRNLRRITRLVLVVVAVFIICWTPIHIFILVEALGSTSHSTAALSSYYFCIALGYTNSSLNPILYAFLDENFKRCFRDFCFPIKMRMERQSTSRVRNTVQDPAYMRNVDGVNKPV
UniProt P97266, whole entry, looked up: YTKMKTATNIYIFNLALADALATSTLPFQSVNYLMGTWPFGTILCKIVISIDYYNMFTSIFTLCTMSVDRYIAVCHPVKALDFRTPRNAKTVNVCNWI

In ChEMBL document CHEMBL1142487, “Design, synthesis, and structure-activity relationship of novel opioid kappa-agonists” (Bioorg Med Chem, 2008) one finds Ke and Ratio data, which are given here for one compound.

In the case of `CN(C(=O)Cc1ccc(Cl)c(Cl)c1)C1CCCCC1N1CCCC1` (stereo not drawn), the Ke in test [1] was 31.5 nM; in test [2], 41.2 nM; in test [6] it was 12.1 nM; in test [7] it was 0.031 nM; in test [8] it was 0.031 nM. Also, the Ratio amounted to 390 in test [3], 1020 in test [4] and 1330 in test [5].
